Ab-14 heavy chain CDR variants: yeast mating affinities

The measurements come from Li et al. 2023 (doi:10.1038/s41467-023-39022-2) through the FLAb antibody collection.

Target: peptide PDVDLGDISGINAS, taken from heptad repeat 2 (HR2) of SARS-CoV-2 spike.

Each scFv is VH, the linker GGGGSGGGGSGGGGS, VL, as in the parent Ab-14, and differs from it in the CDRs of the heavy chain only.
VH: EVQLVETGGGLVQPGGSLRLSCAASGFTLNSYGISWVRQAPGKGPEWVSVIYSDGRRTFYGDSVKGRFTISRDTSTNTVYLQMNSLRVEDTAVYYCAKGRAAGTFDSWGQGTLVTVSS
VL: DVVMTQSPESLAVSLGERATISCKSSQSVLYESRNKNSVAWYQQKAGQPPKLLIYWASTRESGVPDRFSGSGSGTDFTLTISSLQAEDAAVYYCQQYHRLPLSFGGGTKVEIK

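The starting antibody came from a phage panning campaign against this peptide. This is the validation round: designs drawn from the data on random variants, tested in the same kind of assay. Their group label is 14H_En_HC (En: ensemble of fine-tuned language models; HC: hill climbing; a sequence that several methods proposed may carry one label only). Affinity was read by AlphaSeq, a pooled yeast mating assay with surface-displayed partners. The frequency of each diploid, read from paired DNA barcodes, reflects how well the two displayed proteins bind. Each replicate has its own calibration line, from reference interactions of the BCL2 family. Mating was done six times.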

Variants are written as CDR1, CDR2 and CDR3 of the heavy chain (limits as in the source). Parent: GFTLNSYGIS, VIYSDGRRTFYGDSVK, GRAAGTFDS. Scale: log10 of Kd in nM, estimated from mating counts; low values are strong binders. A mean of the replicates is given; it leaves out those without a signal. An entry "ND" has no value in the source: the pair was not observed among the diploids in that replicate. This suggests poor binding but is not conclusive. The authors' rule: three or more of the six replicates give a measured affinity, fewer mean a poor binder. A sequence measured in both rounds can read differently, since the two assays cover different ranges. Background: pairings of all heavy chain designs with three empty control strains gave a value in 1% of cases (median 2.08, 5th percentile 0.84). Values in that range, when seen in few replicates, are hard to tell from nonspecific mating. For each scFv, signals with the empty controls are counted beside the result, with their mean in brackets. Of ten entries with the parent sequence, four were seen in most replicates (averages 0.34 to 2.37), three in one and three in none, so single entries are noisy.

CDR-H1,CDR-H2,CDR-H3,log10 Kd (nM) by replicate,mean log10 Kd (nM),control signals
GFDLDEYGIS,VIYADGRRTFYQDSVK,GQAAGTFDT,-0.56 -0.86 -0.46 -1.48 -1.41 -0.82,-0.93,0/18
GFDLNEYGIS,VIYADGRRTAYADSVK,GEAAGTFDK,-0.47 -0.48 -0.12 -0.78 -0.74 -0.23,-0.47,0/18
GFDLNEYGIS,VIYADGRRTFYTDSVK,GEQAGTFDS,0.27 0.09 -0.25 -0.91 0.01 -0.71,-0.25,0/18
GFDLNEYGIS,VIYADGLRTSYADSVK,GQNAGTFDM,-0.23 -1.20 -1.08 ND -0.39 -0.60,-0.70,0/18
GFTLNSYGIS,VIYADGRRTFYGDSVK,GRAAGTNES,ND 2.57 ND ND ND ND,2.57,0/18
GFDLNEYGIS,VIYADGRRTFYIDSVK,GTNAGTFDV,ND ND ND ND ND ND,ND,0/18
GFDLNEYGIS,VIYADGRRTAYSDSVK,GNNAGFFDS,ND ND ND ND ND ND,ND,2/18 (2.03)
GFDLNEYGIS,VIYADGRRTFYADDVK,GENAGTFDL,-0.26 -0.20 0.04 0.15 -0.05 -0.24,-0.09,0/18
GFNLNEYGIS,VIYADGVRTFYADSVK,GEHAGSFDI,-0.34 -0.13 0.02 -0.37 -0.45 -0.44,-0.29,0/18
GFDLNEYGIS,VIYADGKRTFYSDSVK,GEAAGTFDS,0.00 -0.09 -0.21 -0.19 0.05 0.27,-0.03,0/18
GFDLNEYGIS,VIYADGRRTFYSDNVK,GNVGGTFDI,0.12 0.11 -0.43 -0.31 -0.18 0.02,-0.11,1/18 (2.67)
GFTLDEYGIS,VIYADGRRTFYADSVK,GGNAGTFDV,0.07 0.07 0.11 -0.23 0.05 0.30,0.06,0/18
GFDLEDYGIS,VIYADGRRTFYADSVK,GEYAGTFDI,-0.01 0.14 -0.27 -0.43 -0.53 -0.16,-0.21,1/18 (1.56)
GFDLDEYGIS,VIYADGRRTFYADSVK,GNLAGTFDA,-1.10 -0.87 -1.05 -1.28 -1.19 -0.33,-0.97,0/18
GFDLNEYGIS,VIYADGSRTFYADSVK,GEAAGSFDV,1.08 1.36 0.85 0.42 0.59 0.91,0.87,0/18
GFDLNEYGIS,VIYADGRRTFYTDSVK,GGNAGTFDE,0.28 0.06 -0.23 -0.15 0.31 0.63,0.15,0/18
GFDLNEYGIS,VIYADGRRTFYSDSVK,GELAGTFDV,-0.67 -0.59 -0.69 -0.69 -0.53 -0.40,-0.60,0/18
GFDLNEYGIS,VIYADGRRTVYADSVK,GQLAGTFDF,-0.36 -0.82 -0.90 -0.74 -0.71 -0.74,-0.71,1/18 (1.76)
GFDINEYGIS,VIYADGRRTFYADSVK,GQTAGTFDS,1.64 0.17 -0.53 -0.59 -0.79 0.62,0.09,0/18
GFDLNEYGIS,VIYADGRRTFYSDSVK,GQVAGTFNV,-0.40 -0.82 -0.90 -0.45 -0.69 -0.44,-0.62,0/18
GFDLNEYGIS,VIYADGKRTFYADSVK,GEAAGTFDQ,-0.31 -0.54 -0.38 -0.48 -0.23 -0.29,-0.37,0/18
GFDLDEYGIS,VIYADGRRTFYQDSVK,GEVAGTFDS,-0.77 -0.44 -0.80 -0.76 -0.79 -0.50,-0.68,0/18
GFDLNEYGIS,VIYADGVRTFYADSVK,GKIAGTFNV,-0.40 -0.29 -0.46 0.28 -0.72 -0.61,-0.37,0/18
GFDLEDYGIS,VIYADGRRTFYADSVK,GNVAGTFIM,0.88 -0.02 0.14 0.00 0.22 0.07,0.22,0/18
GFDLNEYGIS,VIYADGMRTAYADSVK,GQLAGTFDT,-0.60 -0.01 -0.60 -1.06 -1.01 -0.79,-0.68,0/18
GFDLNEYGIS,VIYADGRRTFYADDVK,GEVAGTFDL,-0.31 -0.61 -0.61 -0.57 -0.58 -0.55,-0.54,1/18 (2.22)
GFDLNEYGIS,VIYADGKRTFYADSVK,GQVAGTFDQ,-0.61 -0.70 -0.88 -1.00 -0.46 -0.39,-0.67,0/18
GFDLNEYGIS,VIYADGRRTAYGDSVK,GETAGTFDQ,-0.53 -0.66 -0.91 -0.62 -0.51 -0.60,-0.64,0/18
GFDLNEYGIS,VIYADGVRTFYSDSVK,GTNAGTFDM,-1.21 -1.15 -1.32 -1.43 -1.42 -1.19,-1.29,1/18 (1.24)
GFDLNEYGIS,VIYADGRRTFYADSVK,GEAAGTFFT,1.09 0.61 0.18 0.93 0.87 1.13,0.80,1/18 (1.87)
GFDLNEYGIS,VIYADGRRTFYADSVK,GQTAGTFDI,0.51 0.04 0.15 0.29 0.10 0.73,0.30,0/18
GFDLNEYGIS,VIYADGRRTFYADSVK,GNEAGTFDS,0.15 0.62 0.12 0.27 0.35 0.67,0.36,0/18
GFDLNEYGIS,VIYADGRRTAYTDSVK,GEHAGTFDV,-0.30 0.60 -1.22 0.44 -0.59 1.08,0.00,0/18
GFDLNEYGIS,VIYADGQRTFYADSVK,GQNAGTFTL,0.17 0.22 0.44 0.52 0.03 0.06,0.24,0/18
GFDLNEYGIS,VIYADGRRTFYSDSVK,GHNAGTFIQ,ND ND ND ND ND ND,ND,0/18
GFDLNEYGIS,VIYADGMRTFYADSVK,GQVAGTFDM,0.22 0.85 0.18 0.13 0.51 1.65,0.59,0/18
GFDLNEYGIS,VIYADGRRTAYSDSVK,GNVAGTFDS,-0.22 -0.57 -0.57 -0.57 -0.42 -0.23,-0.43,0/18
GFDLNEYGIS,VIYADGRRTFYVDSVK,GGNAGTFDV,-0.93 -1.18 -1.37 -1.56 -1.29 -1.34,-1.28,0/18
GFDLNEYGIS,VIYADGQRTFYVDSVK,GQVAGTFNV,-0.81 -0.41 -0.94 -0.60 -0.90 -0.25,-0.65,0/18
GFDLDEYGIS,VIYADGRRTFYSDSVK,GEAAGTFDM,-0.91 -0.98 -0.89 -0.91 -0.95 -0.70,-0.89,0/18
GFNLNEYGIS,VIYADGMRTFYADSVK,GEVAGTFDV,-0.39 -0.39 -0.76 -0.65 -0.62 -0.33,-0.52,0/18
GFDLNEYGIS,VIYADGSRTFYADSVK,GNAAGTFDS,0.03 -0.08 -0.06 -0.40 -0.47 -0.22,-0.20,0/18
GFDLNEYGIS,VIYADGRRTFYADSVK,GNNAGTILV,ND ND ND ND ND ND,ND,1/18 (2.16)

The 2 strongest on average among those seen in every replicate, once more:

CDR-H1	CDR-H2	CDR-H3	log10 Kd (nM) by replicate	mean log10 Kd (nM)	control signals
GFDLNEYGIS	VIYADGVRTFYSDSVK	GTNAGTFDM	-1.21 -1.15 -1.32 -1.43 -1.42 -1.19	-1.29	1/18 (1.24)
GFDLNEYGIS	VIYADGRRTFYVDSVK	GGNAGTFDV	-0.93 -1.18 -1.37 -1.56 -1.29 -1.34	-1.28	0/18